Experimental data reported in ChEMBL document CHEMBL3797118, “New Colchicine-Derived Triazoles and Their Influence on Cytotoxicity and Microtubule Morphology” (ACS Med Chem Lett, 2016).

Amino acid sequences for entries named in this document (tags omitted). A change or cut given only in a name is not applied to a line headed by its entry.
UniProt P02554: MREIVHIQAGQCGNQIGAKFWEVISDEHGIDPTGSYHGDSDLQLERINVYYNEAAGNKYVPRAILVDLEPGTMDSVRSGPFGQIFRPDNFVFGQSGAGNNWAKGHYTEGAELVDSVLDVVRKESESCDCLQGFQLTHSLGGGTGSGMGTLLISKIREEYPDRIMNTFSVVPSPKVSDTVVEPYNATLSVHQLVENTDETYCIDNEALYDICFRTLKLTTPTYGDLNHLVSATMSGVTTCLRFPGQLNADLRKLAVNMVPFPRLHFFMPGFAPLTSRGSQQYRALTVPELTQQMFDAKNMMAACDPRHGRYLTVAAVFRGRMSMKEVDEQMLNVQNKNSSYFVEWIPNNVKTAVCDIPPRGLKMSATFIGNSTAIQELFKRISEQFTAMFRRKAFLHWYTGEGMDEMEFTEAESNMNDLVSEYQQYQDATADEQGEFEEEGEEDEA
UniProt P02550: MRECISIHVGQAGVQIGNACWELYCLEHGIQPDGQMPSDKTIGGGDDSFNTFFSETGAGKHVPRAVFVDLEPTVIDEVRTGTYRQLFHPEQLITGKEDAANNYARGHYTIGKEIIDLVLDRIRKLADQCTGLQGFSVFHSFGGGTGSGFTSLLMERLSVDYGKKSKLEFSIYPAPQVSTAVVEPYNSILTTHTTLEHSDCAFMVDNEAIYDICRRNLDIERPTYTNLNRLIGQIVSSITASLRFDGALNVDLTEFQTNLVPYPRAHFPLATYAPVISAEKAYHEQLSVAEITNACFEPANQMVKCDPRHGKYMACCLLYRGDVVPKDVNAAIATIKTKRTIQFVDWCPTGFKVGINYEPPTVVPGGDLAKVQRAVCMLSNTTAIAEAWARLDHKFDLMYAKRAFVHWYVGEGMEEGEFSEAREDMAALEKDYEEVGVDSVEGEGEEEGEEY

target: Tubulin (Sus scrofa, UniProt P02554+P02550); assay: Inhibition of porcine brain tubulin polymerization measured every 1 min for 60 mins by microplate reader analysis

IC50 | SMILES
2.44 nM | COc1cc2c(c(OC)c1OC)-c1ccc(OC)c(=O)cc1[C@@H](n1cc(COC(=O)CCNC(=O)OC(C)(C)C)nn1)CC2
2.1 nM | COc1cc2c(c(OC)c1OC)-c1ccc(OC)c(=O)cc1[C@@H](n1cc(CCC(=O)OCc3ccc(F)cc3)nn1)CC2
3.2 nM | COc1cc2c(c(OC)c1OC)-c1ccc(OC)c(=O)cc1[C@@H](n1cc(COC(=O)[C@H](Cc3ccccc3)NC(=O)OC(C)(C)C)nn1)CC2
